Screens as filed in PubChem.
A selection: hits, their analogues and other compounds. The true share with any hit is near 1.3%.
SR-BI uptake up – activators of SR-BI mediated HDL lipid uptake | CHO ldlA[mSR-BI] cells, DiI-HDL uptake fluorescence, 3 h; 100 = double the neutral-control signal | activation, % at 12.5 µM | 320,000 tested, 0.096% active | AID 504775;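 active means mean replicate activation of at least 60% and every replicate at or above 60%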;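 further: 0% = median plate neutral-control signal and 100% = twice that signal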
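Test system: SR-BI-overexpressing, LDLR-lacking CHO cells; Also added: labelled HDL, 10 µg/mL; Measured by: bottom-read cell fluorescence after medium removal, ex 550/em 595 nm; Timing: 3 h uptake period with compound, 37 °C; Buffer or medium: F12, 0.5% BSA, 25 mM HEPES; Doses: single compound concentration, delivered by pin transfer.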
INS-1E GSIS act – GLuc luminescence reporter in INS-1E cells, primary screen for activators of glucose-dependent secretion of insulin; INS-1E GLuc reporter insulin secretion, 2-3 h; activation, % at 16.6 µM; 370,000 tested, 0.61% active;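 active means lowest replicate activation of at least 40%, so every replicate reaches that level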;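 further: 0% = median of neutral control wells and 100% = median of IBMX positive control wells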
SR-BI DiI inh – blocks mouse SR-BI lipid uptake from DiI-HDL; inhibition, % at 12.5 µM; Q61009; 320,000 tested, 0.96% active; ldlA[mSR-BI] CHO cells, DiI-HDL uptake fluorescence, 3 h; AID 488896;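 active means mean replicate inhibition of at least 70% and a set share of replicates each scoring 70 or more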;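 further: 0% = median of neutral control wells and 100% = median of positive control wells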
Yeast UUG start – modulators of yeast start codon fidelity, primary screen, whole organism, S. cerevisiae, single point, plate reader | AID 602363, 2012 | actives 0.13% (n = 350,000) | activity score, % at 18.7 µM | S. cerevisiae UUG-firefly luciferase reporter, luminescence/redox ratio;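 active means replicate mean at a twofold rise or more, about +100% in these data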;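 further: firefly luciferase made from a UUG start codon reports start codon fidelity; reporter light over untreated wells divided by growth signal over untreated wells; some hits fall short of that in this replicate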
* hit, by the source's call.

`O=C(C[C@@H]1CC[C@@H](NC(=O)Nc2ccc3c(c2)OCO3)[C@@H](CO)O1)NCc1ccc2c(c1)OCO2` gave INS-1E GSIS act 17 and Yeast UUG start -6.
For COc1cc(/C=C/C(=O)OCC(=O)c2c(N)n(C)c(=O)n(C)c2=O)ccc1OCC#N the results were SR-BI uptake up -71, INS-1E GSIS act 13 and SR-BI DiI inh 71*.
For COc1ccc(C(=O)OCC(=O)c2c(N)n(C)c(=O)n(C)c2=O)c(OC)c1OC the results were SR-BI uptake up 8, INS-1E GSIS act 45*, SR-BI DiI inh -8 and Yeast UUG start 7.
For COc1cc(/C=C/C(=O)OCC(=O)c2c(N)n(C)c(=O)n(C)c2=O)ccc1O the results were SR-BI uptake up -40, INS-1E GSIS act 6, SR-BI DiI inh 40 and Yeast UUG start -12.
For Cn1c(N)c(C(=O)COC(=O)c2ccnc3ccccc23)c(=O)n(C)c1=O the results were SR-BI uptake up -16, INS-1E GSIS act 12, SR-BI DiI inh 16 and Yeast UUG start -11.
For CNC[C@H]1Oc2ccc(N(C)C)cc2C(=O)N(C)C[C@@H]1C the results were INS-1E GSIS act 0.
`CC=Cc1ccc2n(c1=O)C[C@@H]1[C@@H](CO)[C@H](C(=O)NCCC)[C@H]2N1Cc1ccccc1` (mixture of isomers) gave INS-1E GSIS act -23.
COc1ccc2sc3c(=O)[nH]c4ccccc4c3c2c1 was read as SR-BI uptake up -8, INS-1E GSIS act 103*, SR-BI DiI inh 8 and Yeast UUG start 5.
Screening CN(CCO)c1nc(NCc2ccccc2)c2cnn(C)c2n1 returned SR-BI uptake up -6, INS-1E GSIS act 41*, SR-BI DiI inh 6 and Yeast UUG start 0.
`CCN(CCO)c1nc(NCc2ccccc2)c2cnn(C)c2n1` gave SR-BI uptake up 0, INS-1E GSIS act 3, SR-BI DiI inh 0 and Yeast UUG start -1.
For COc1cc(N)c(Cl)cc1C(=O)N[C@H]1CCN(CCCOc2ccc(F)cc2)C[C@H]1OC the results were SR-BI uptake up -75, SR-BI DiI inh 75* and Yeast UUG start -13.
Cc1ccc(NC(=O)c2ccc(COc3ccc4c(c3)CCC4)cc2)c(C)c1 was read as SR-BI uptake up -37, INS-1E GSIS act 111* and SR-BI DiI inh 37.

Four entries already listed, sorted by molar mass, highest first.
For COc1ccc(C(=O)OCC(=O)c2c(N)n(C)c(=O)n(C)c2=O)c(OC)c1OC the results were SR-BI uptake up 8, INS-1E GSIS act 45*, SR-BI DiI inh -8 and Yeast UUG start 7.
For COc1cc(/C=C/C(=O)OCC(=O)c2c(N)n(C)c(=O)n(C)c2=O)ccc1O the results were SR-BI uptake up -40, INS-1E GSIS act 6, SR-BI DiI inh 40 and Yeast UUG start -12.
Cc1ccc(NC(=O)c2ccc(COc3ccc4c(c3)CCC4)cc2)c(C)c1 was read as SR-BI uptake up -37, INS-1E GSIS act 111* and SR-BI DiI inh 37.
COc1ccc2sc3c(=O)[nH]c4ccccc4c3c2c1 was read as SR-BI uptake up -8, INS-1E GSIS act 103*, SR-BI DiI inh 8 and Yeast UUG start 5.

(more compounds)
`O=C(Nc1ccccc1Cl)c1ccc(COc2ccc3c(c2)CCC3)cc1` gave SR-BI uptake up 5, INS-1E GSIS act -6, SR-BI DiI inh -5 and Yeast UUG start -12.
For CCCCn1c(N)c(-c2nc3ccccc3s2)c2c([N+](=O)[O-])nn(CC)c(=O)c21 the results were SR-BI uptake up -67, INS-1E GSIS act -5, SR-BI DiI inh 67 and Yeast UUG start -6.
For CCCCCn1c(N)c(-c2nc3ccccc3s2)c2c([N+](=O)[O-])nn(CC)c(=O)c21 the results were SR-BI uptake up -83, INS-1E GSIS act -20 and SR-BI DiI inh 83*.
For CCCCn1c(N)c(-c2nc3ccccc3s2)c2c([N+](=O)[O-])nn(C)c(=O)c21 the results were SR-BI uptake up -93, INS-1E GSIS act -10, SR-BI DiI inh 93* and Yeast UUG start -8.
`CCC(Sc1nc(-c2ccccc2)c(-c2ccccc2)[nH]1)C(=O)O` (stereo unspecified) gave SR-BI uptake up 1, INS-1E GSIS act 67*, SR-BI DiI inh -1 and Yeast UUG start -24.
For N#C[C@H]1[C@@H](c2ccc(C#CC3CC3)cc2)[C@@H](CO)N1S(=O)(=O)c1ccccc1 the results were INS-1E GSIS act 2 and Yeast UUG start 25.
For C[C@@H]1CCCCO[C@H](CN(C)CC2CC2)[C@@H](C)CN([C@H](C)CO)C(=O)c2cc(NC(=O)CCC(F)(F)F)ccc2O1 the results were INS-1E GSIS act 6.
Screening COc1ccc(OC)c(-c2cc(C(=O)Nc3c(C)nn(Cc4ccccc4)c3C)no2)c1 returned SR-BI uptake up -53, INS-1E GSIS act -11, SR-BI DiI inh 53 and Yeast UUG start -6.
Screening COc1ccc(OC)c(-c2cc(C(=O)Nc3cccc(Cl)c3)no2)c1 returned SR-BI uptake up -94, INS-1E GSIS act 10, SR-BI DiI inh 94* and Yeast UUG start 15.
`COc1ccc2c(c1)CCc1c(C(=O)NCc3ccc(Cl)cc3)noc1-2` gave SR-BI uptake up 6, INS-1E GSIS act 22 and SR-BI DiI inh -6.
Screening COc1ccc2c(c1)CCc1c(C(=O)Nc3cc(C)n(Cc4ccc(Cl)cc4)n3)noc1-2 returned SR-BI uptake up -12, INS-1E GSIS act 47*, SR-BI DiI inh 12 and Yeast UUG start -10.
For COc1ccc(OC)c(-c2cc(C(=O)Nc3c(C)nn(Cc4ccc(Cl)cc4)c3C)no2)c1 the results were SR-BI uptake up -78, INS-1E GSIS act -23, SR-BI DiI inh 78* and Yeast UUG start -7.
`COc1cccc(-c2cc(C(=O)NCc3ccco3)no2)c1` gave SR-BI uptake up -12, SR-BI DiI inh 12 and Yeast UUG start -11.
`COc1ccc(-c2cc(C(=O)Nc3cccc(Cl)c3)no2)cc1` gave SR-BI uptake up -5, INS-1E GSIS act -10, SR-BI DiI inh 5 and Yeast UUG start -9.
`COc1ccc(OC)c(-c2cc(C(=O)NCc3ccco3)no2)c1` gave SR-BI uptake up -81, INS-1E GSIS act -13, SR-BI DiI inh 81* and Yeast UUG start -19.
CCC(=O)N1[C@H](CO)[C@H](c2ccc(C3=CCCC3)cc2)[C@@H]1CNC(=O)CN(C)C was read as INS-1E GSIS act -9 and Yeast UUG start 24.
For Cc1ccc(-c2cc(-c3ccco3)c3c(N)c(C(=O)NN)oc3n2)cc1 the results were SR-BI uptake up -78 and SR-BI DiI inh 78*.
Screening NNC(=O)c1oc2nc(-c3ccccc3)cc(-c3ccccc3)c2c1N returned SR-BI uptake up -98, INS-1E GSIS act 17, SR-BI DiI inh 98* and Yeast UUG start -16.
For CNC(=S)NNC(=O)c1oc2nc(-c3ccccc3)cc(C)c2c1N the results were SR-BI uptake up 11, INS-1E GSIS act 29 and SR-BI DiI inh -11.
CC(=O)c1ccc(NC(=O)CN2C(=O)/C(=C/C=C/c3ccccc3)SC2=S)cc1 was read as SR-BI uptake up -72, INS-1E GSIS act -11, SR-BI DiI inh 72* and Yeast UUG start -24.
For C[C@@H]1CCCCO[C@@H](CN(C)Cc2ccc(C(=O)O)cc2)[C@H](C)CN([C@H](C)CO)C(=O)c2cc(NC(=O)c3ccccc3)ccc2O1 the results were INS-1E GSIS act 6 and Yeast UUG start 27.
Screening C[C@H](NC(=O)C[C@@H]1CC[C@H](NC(=O)C2CC2)[C@H](CO)O1)c1ccccc1 returned INS-1E GSIS act 21 and Yeast UUG start -15.
COC(=O)Nc1sc2c(c1C(N)=O)CCC(C)C2 (stereo unspecified) was read as SR-BI uptake up -48, INS-1E GSIS act -5 and SR-BI DiI inh 48.
For CC1CCc2c(sc(NC(=O)c3cccn3C)c2C(N)=O)C1 (stereo unspecified) the results were SR-BI uptake up -81, SR-BI DiI inh 81* and Yeast UUG start -12.
